Reference: publication PMC4106900 (Journal of medicinal chemistry, 2012)

Assay: Small-animal PET imaging, baseline brain uptake of [18F]13
Assay type: in vivo
Conditions: baseline TAC, whole mouse brain

## O=c1sc2cc(CCCF)ccc2n1CCN1CCCCCC1 [[^18F]13, 6-(3-fluoropropyl)-3-(2-(azepan-1-yl)ethyl)benzo[d]thiazol-2(3H)-one]
  time of maximum brain uptake: within the first few minutes
